Data: US9018209B2, “Compounds and methods for the treatment of viruses and cancer” (Yale University, priority 2005, dated 2015)

System: MT-2 human T-cells
Test: Cytotoxicity: inhibition of MT-2 cell growth
Assay type: cell-based
Description: The preparation of the analogues 4a-h involved the reaction between 2-bromothiazole 1 with the corresponding 5-amino-2-R-phenol 2, followed by reaction with 4-bromo-2-methyl-2-butene in presence of Cs2CO3 as a base (Scheme 1; see Table 1 for antiviral activities (EC50) and cytotoxicities (IC50) of these compounds, as determined using human MT-2 cells infected with IIIB strain of HIV-1).
See, Ruiz-Caro, supra. and Lin, et al., Biochem. Pharmacol. 1994, 47, 171-174.

[1] = Table 1B, for 50% inhibition of MT-2 cell growth, triplicate samples

Substance	CC50 [1]	CC50 (Table 2b, MT-2 cells)
Ethyl 2-(4-methoxy-3-(3-methylbut-2-enyloxy)phenylamino)thiazole-4-carboxylate [Compound 9c]	0.5 µM	–
Ethyl 2-(4-methyl-3-(3-methylbut-2-enyloxy)phenylamino)thiazole-4-carboxylate [Compound 9b]	9 µM	9 µM
